Data published in ChEMBL document CHEMBL1152120, “RP 73163: A bioavailable alkylsulphinyl-diphenylimidazole ACAT inhibitor” (Bioorg Med Chem Lett, 1996).

Assays:
[1] = target: T1, Acyl-CoA:cholesterol acyltransferase (Oryctolagus cuniculus, UniProt Q95214); test: Compound was evaluated for inhibitory activity against Acyl coenzyme A:cholesterol acyltransferase in microsomes from rabbit intestine.
T1 sequence (Q95214 whole entry): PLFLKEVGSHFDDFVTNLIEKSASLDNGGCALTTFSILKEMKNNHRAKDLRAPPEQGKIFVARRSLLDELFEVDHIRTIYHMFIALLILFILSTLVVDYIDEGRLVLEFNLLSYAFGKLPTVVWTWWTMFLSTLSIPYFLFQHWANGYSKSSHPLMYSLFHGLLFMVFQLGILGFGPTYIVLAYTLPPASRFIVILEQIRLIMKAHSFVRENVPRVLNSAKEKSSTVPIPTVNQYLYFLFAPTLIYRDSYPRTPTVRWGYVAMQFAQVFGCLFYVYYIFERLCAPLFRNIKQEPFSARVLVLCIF

[2] = target: T1, Acyl-CoA:cholesterol acyltransferase; test: Compound was evaluated for inhibitory activity against Acyl coenzyme A:cholesterol acyltransferase in microsomes from rabbit adrenal.
[3] = target: T2, Sterol O-acyltransferase 1 (Rattus norvegicus, UniProt O70536); test: biochemical; type: tissue-based, Liver
T2 sequence (O70536 whole entry): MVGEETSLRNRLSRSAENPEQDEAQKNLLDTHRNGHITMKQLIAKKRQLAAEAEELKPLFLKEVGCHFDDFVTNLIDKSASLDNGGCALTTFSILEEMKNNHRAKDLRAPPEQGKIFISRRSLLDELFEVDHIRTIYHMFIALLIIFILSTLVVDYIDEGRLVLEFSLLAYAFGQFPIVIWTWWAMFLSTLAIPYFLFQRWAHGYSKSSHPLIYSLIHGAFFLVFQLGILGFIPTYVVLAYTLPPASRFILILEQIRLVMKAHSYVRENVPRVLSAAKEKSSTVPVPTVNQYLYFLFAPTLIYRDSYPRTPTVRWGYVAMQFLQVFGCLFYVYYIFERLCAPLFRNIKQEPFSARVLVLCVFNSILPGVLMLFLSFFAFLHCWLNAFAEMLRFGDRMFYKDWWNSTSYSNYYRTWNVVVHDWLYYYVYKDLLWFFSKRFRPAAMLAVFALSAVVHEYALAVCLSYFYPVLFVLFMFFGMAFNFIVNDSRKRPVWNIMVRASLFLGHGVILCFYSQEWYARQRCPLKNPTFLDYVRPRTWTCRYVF

Cc1cc(C)n(CCCCCSc2nc(-c3ccccc3)c(-c3ccccc3)[nH]2)n1
IC50 [1]: 108 nM
IC50 [2]: 80 nM

Cc1cc(C)n(CCCCC[S+]([O-])c2nc(-c3ccccc3)c(-c3ccccc3)[nH]2)n1 (stereo not drawn)
IC50 [3]: 86 nM
